Assays:
[1] = Native gel after storage in freezer (-80 degrees Celsius) and thawing; assay type: physicochemical; conditions: ferritin cages with doxorubicin, mutants of b203
From the text: Storage conditions for wild type ferritin are limited.

[2] = Protein recovery after doxorubicin loading, UV-Vis spectrum; assay type: physicochemical; conditions: initial concentration 28.5 mg/ml, volume 1 ml
siRNA = test: Association of ferritin with siRNA, gel; assay type: binding; conditions: independently from pH conditions (2.5 to 6.8)
Procedure: FIG. 8: Picture of gel showing RNA association with Q11E ferritin mutant that is not observed in case of wild-type protein (wt).
1 ml reaction containing 2 mg Ft and 4 ug siRNA in DPBS, pH lowered to values as indicated (2.5, 3.2, 4.4, 5.6 and 6.8, respectively). Samples were incubated 15 min in RT, then NaOH was added to adjust pH to neutral (pH 7). Non-associated free siRNA was removed by 4 centrifugation steps on Amicons with 100 kDa cut-off.

## WT: human wild-type heavy chain ferritin (SEQ ID NO. 1)
[1]
  aggregation of cages after storage: increase of cages aggregation
[2]
  final protein concentration after doxorubicin encapsulation: 10.2 mg/mL
siRNA
  association with siRNA: no association with siRNA

Source: patent US20240158472A1, “FERRITIN VARIANTS WITH INCREASED STABILITY AND COMPLEXATION ABILITY” (Cellis AG, priority 2021, published 2024)
